# Values quoted from earlier work, collected in US20020173640A1, “ADAM polynucleotides, polypeptides, and antibodies” (Human Genome Sciences, Inc., priority 1999, published 2002).
# Protein sequences, listed by entry. Tags and fused reporters are not part of them. Residues count along the entry.
# UniProt P08254, 100-477: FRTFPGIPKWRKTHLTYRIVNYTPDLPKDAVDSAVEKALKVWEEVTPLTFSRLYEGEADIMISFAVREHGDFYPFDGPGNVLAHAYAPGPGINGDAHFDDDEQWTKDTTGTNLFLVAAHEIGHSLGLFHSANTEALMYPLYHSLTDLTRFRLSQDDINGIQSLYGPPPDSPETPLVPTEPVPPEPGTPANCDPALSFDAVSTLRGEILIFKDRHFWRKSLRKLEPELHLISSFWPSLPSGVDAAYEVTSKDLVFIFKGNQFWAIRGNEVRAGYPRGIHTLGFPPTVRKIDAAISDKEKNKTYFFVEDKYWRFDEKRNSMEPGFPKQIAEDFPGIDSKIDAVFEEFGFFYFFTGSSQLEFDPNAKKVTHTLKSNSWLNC
# Biological target: MMP-3 (Homo sapiens, UniProt P08254)
# Settings: commercial (CALBIOCHEM) inhibitor data; read-out: K1 against MMP-3; cited from earlier work
structure (smiles),measurement,value
"COc1ccc(S(=O)(=O)N(CC(=O)NO)CC(C)C)cc1 [MMP-3 inhibitor II, N-Isobutyl-N-(4-methoxyphenylsulfonyl)-glycylhydroxamic acid]",Ki,130 nM
